Assay results taken from US20030224467A1, “AIB1 as a prognostic marker and predictor of resistance to endocrine therapy” (priority 2002, published 2003).

Legend:
MCF-7 cells = experiment: S-phase fraction of cells; format: cell-based, human; conditions: Herceptin with heregulin
MCF-7/HER-218 tumors = experiment: Athymic nude mouse model, MCF-7/HER-218 tumor growth; format: in vivo, mice
Description: Ovariectomised female BALB/c-nu+/nu+ mice 4-5 weeks of age were purchased from Harlan Sprague-Dawley (Madison, Wis.). Methods for housing and maintenance of the animals were in accordance to institutional guidelines and were previously described. Estrogen pellets (0.25 mg, 21 day release) were purchased from Innovative Research (Rockville, Md.) and half a pellet placed subcutaneously in the interscapular area of each animal on the day prior to cell injection. MCF-7/HER-218 cells were grown in 150 cm^3 flasks and split 1:5 in DMEM (Invitrogen, Calif.) supplemented with 10% FBS. When flask cell confluence reached 90-100%, cells were harvested using a soft rubber scraper, then spun down at 1000 rpm for 3 minutes, and resuspended in the original media for injection. Cells were injected at 5×10^6−1×10^7 in 0.2 ml per animal in the right mammary fat pad. […] Animals in each one of these groups were either given concomitant Herceptin (10 mg/kg) or control vehicle. Each individual group had 8 animals (n=8). Herceptin or vehicle were given intraperitoneally at a dose of 10/mg/kg twice a week.. Tumors were subsequently measured weekly and recorded according to the formula: Tumor volume=width^2×length/2. Animal were weighed every 2 weeks and monitored for toxicity. […] Values are expressed as relative to tumor volume to size at the beginning of treatment as mean ±s.d.

parental MCF-7 tumors = experiment: Parental MCF-7 tumor growth; format: in vivo, mice; conditions: Herceptin
MCF-7/HER-218 cells = experiment: S-phase fraction of cells; format: cell-based, human

Herceptin: Trastuzumab binds to the HER-2 protein receptor on the surface of cells; blocks the HER-2 pathway
Heregulin-increased S-phase fraction (MCF-7 cells): blocked | Effect on estrogen-induced tumor growth (MCF-7/HER-218 tumors; Herceptin 10 mg/kg with continued estrogen, compared to estrogen alone): slow estrogen-induced growth of MCF-7/HER-218 tumors slightly | Effect on agonist properties of tamoxifen on tumor growth (MCF-7/HER-218 tumors; concomitant Herceptin with estrogen deprivation plus tamoxifen): abolished | Estrogen-mediated tumor growth (parental MCF-7 tumors): unaffected | Estrogen's effects on S-phase fraction (MCF-7/HER-218 cells; Herceptin with estrogen): only modestly inhibited | Stimulatory effect of tamoxifen and heregulin on S-phase fraction (MCF-7/HER-218 cells; Herceptin with tamoxifen or heregulin): abrogated | Basal S-phase fraction (MCF-7/HER-218 cells; Herceptin, control conditions): reduced
